# Reference: patent US12378248B2
# Assays:
# [1] = test system: wild-type C57BL/6J mice; test: Hypothermia (Tb by telemetry) after ip dosing; details: 1 mg/kg ip; average from dosing to 60 min; mean±SD
# [2] = test system: wild-type C57BL/6J mice; details: 1 mg/kg ip; marked with reference 30; cited from earlier work
# [3] = test system: wild-type C57BL/6J mice; test: Locomotor activity by telemetry after ip dosing; details: 1 mg/kg ip; average from dosing to 60 min; mean±SD
smiles,measurement,setting,value
OC[C@H]1O[C@@H](n2cnc3c(NC4CCCC4)ncnc32)[C@H](O)[C@@H]1O,Tb (° C.),[1],32.4 ± 0.5 °C
same,ARs causing hypothermia,[2],A3AR > A1AR^30
same,Activity (counts),[3],1.5 ± 0.5 counts
